Literature values in patent US20070280970A1, “Methods of Treating Wounds With Gonyautoxins” (published 2007).
Read-outs that look alike come from different tables or passages of the source.

System: chronic anal fissure
Details: for Complications / Healing rate at 3 months (%) / Recurrence (%): ointment
[1] = 25 patients, N Eng J Med 1999, 341: 65-9
[2] = 26 patients, Dis Colon Rectum 2002, 46: 805-8

Row | Structure (SMILES) | Side effects of treatment (chronic anal fissure) | Change in MVCP (long term treatment (over three months)) | Complications [1] | Healing rate at 3 months (%) [1] | Recurrence (%) [1] | Complications [2] | Healing rate at 3 months (%) [2] | Recurrence (%) [2] | Relapse occurrence (treated anal fissure patients) | Side effects (topical application)
1 | O=[N+]([O-])OCC(CO[N+](=O)[O-])O[N+](=O)[O-] | moderate to severe headaches | without a significant change | Headaches | 60% | 12% | Moderate | 36% | 31% | 31% | –
2 | COC(=O)C1=C(C)NC(C)=C(C(=O)OC)C1c1ccccc1[N+](=O)[O-] | – | – | – | – | – | – | – | – | – | does not produce any significant side effects
